The values that follow come from ChEMBL document CHEMBL5523669, “Sialyl LewisX glycomimetics bearing an extended anionic chain targeting E- and P- selectin binding sites” (Bioorg Med Chem, 2024).

The target in the assay is T1, P-selectin (Homo sapiens, UniProt P16109).
T1 sequence (P16109 whole entry): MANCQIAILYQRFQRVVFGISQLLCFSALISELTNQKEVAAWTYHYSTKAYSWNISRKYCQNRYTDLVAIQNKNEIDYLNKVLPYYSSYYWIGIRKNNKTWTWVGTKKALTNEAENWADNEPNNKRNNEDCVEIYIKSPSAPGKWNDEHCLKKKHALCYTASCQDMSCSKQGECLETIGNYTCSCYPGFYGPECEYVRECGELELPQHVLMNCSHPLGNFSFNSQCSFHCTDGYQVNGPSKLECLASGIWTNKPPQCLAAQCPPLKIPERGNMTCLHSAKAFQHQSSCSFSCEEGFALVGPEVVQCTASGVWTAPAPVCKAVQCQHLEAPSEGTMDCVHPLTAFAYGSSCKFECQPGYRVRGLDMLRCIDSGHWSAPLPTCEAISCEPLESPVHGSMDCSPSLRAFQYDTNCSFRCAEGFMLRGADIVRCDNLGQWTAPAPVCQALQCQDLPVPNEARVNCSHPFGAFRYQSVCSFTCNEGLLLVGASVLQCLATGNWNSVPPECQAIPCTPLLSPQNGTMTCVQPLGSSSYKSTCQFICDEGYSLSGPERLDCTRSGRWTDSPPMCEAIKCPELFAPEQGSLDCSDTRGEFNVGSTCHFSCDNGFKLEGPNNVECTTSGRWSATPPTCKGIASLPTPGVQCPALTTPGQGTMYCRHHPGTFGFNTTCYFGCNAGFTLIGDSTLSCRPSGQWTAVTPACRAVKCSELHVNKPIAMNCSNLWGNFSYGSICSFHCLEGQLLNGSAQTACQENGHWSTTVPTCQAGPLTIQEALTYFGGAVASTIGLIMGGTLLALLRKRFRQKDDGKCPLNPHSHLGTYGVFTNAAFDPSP
The assay is described as follows: Antagonist activity at recombinant human P-selectin assessed as inhibition of P-selection binding to homodimer human PSGL-1-Fc interaction measured after 30 mins by surface plasmon resonance (SPR) spectroscopy.

As to `O=C(O)Cc1cccc(-c2cc(CCCCCCc3ccc(O[C@H]4O[C@H](CO)[C@@H](O)[C@H](O)[C@@H]4O)c(-c4cccc(CC(=O)O)c4)c3)ccc2O[C@H]2O[C@H](CO)[C@@H](O)[C@H](O)[C@@H]2O)c1` [BIMOSIAMOSE], the IC50 came to 249 µM.

For orientation: IC50 means the concentration that inhibits the measured activity by half.
